Laboratory results taken from patent publication US20220267475A1 (published 2022).

Chains of the proteins cited; added tags and fusions are not shown. Residues count along the entry.
UniProt Q08722, 19-323: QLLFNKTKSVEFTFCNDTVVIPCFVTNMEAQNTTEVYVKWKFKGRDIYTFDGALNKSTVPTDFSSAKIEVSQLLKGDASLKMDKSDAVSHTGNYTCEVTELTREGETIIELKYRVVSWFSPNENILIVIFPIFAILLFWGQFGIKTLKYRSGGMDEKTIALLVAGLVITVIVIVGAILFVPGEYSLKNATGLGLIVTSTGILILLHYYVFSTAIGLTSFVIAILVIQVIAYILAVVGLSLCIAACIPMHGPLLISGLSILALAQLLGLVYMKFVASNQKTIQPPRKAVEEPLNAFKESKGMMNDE

B1: TIGIT-G9-LN (bispecific antibody)
heavy: not shown
light: EVQLVESGGGLVQPGGSLRLSCAASGYKYGVYSMGWFRQAPGKGLEGVSAICSGGRTTYSDSVKGRFTISRDNSNQILYLQMNSLRAEDTAVYYCAARPLWTGDCDLSSSWYKTWGQGTLVTVSSGGGGSGGGSEIVLTQSPATLSLSPGERATLSCRASENVGTYISWYQQKPGQAPRLLIYGASNRYTGIPARFSGSGSGTDFTLTISSLEPEDFAVYYCGESYGHLYTFGGGTKVEIKRTVAAPSVFIFPPSDEQLKSGTASVVCLLNNFYPREAKVQWKVDNALQSGNSQESVTEQDSKDSTYSLSSTLTLSKADYEKHKVYACEVTHQGLSSPVTKSFNRGEC
B2: TIGIT-E-LN (bispecific antibody)
heavy: not shown
light: EVQLVESGGGLVQPGGSLRLSCAASGYKYGVYSMGWFRQAPGKGLEGVSAICSGGRTTYSDSVKGRFTISRDNSNQILYLQMNSLRAEDTAVYYCAARPLWTGDCDLSSSWYKTWGQGTLVTVSSEPKSSDKTHTSPPSPEIVLTQSPATLSLSPGERATLSCRASENVGTYISWYQQKPGQAPRLLIYGASNRYTGIPARFSGSGSGTDFTLTISSLEPEDFAVYYCGESYGHLYTFGGGTKVEIKRTVAAPSVFIFPPSDEQLKSGTASVVCLLNNFYPREAKVQWKVDNALQSGNSQESVTEQDSKDSTYSLSSTLTLSKADYEKHKVYACEVTHQGLSSPVTKSFNRGEC
B3: TIGIT-E-LC (bispecific antibody)
heavy: not shown
light: EIVLTQSPATLSLSPGERATLSCRASENVGTYISWYQQKPGQAPRLLIYGASNRYTGIPARFSGSGSGTDFTLTISSLEPEDFAVYYCGESYGHLYTFGGGTKVEIKRTVAAPSVFIFPPSDEQLKSGTASVVCLLNNFYPREAKVQWKVDNALQSGNSQESVTEQDSKDSTYSLSSTLTLSKADYEKHKVYACEVTHQGLSSPVTKSFNRGECEPKSSDKTHTSPPSPEVQLVESGGGLVQPGGSLRLSCAASGYKYGVYSMGWFRQAPGKGLEGVSAICSGGRTTYSDSVKGRFTISRDNSNQILYLQMNSLRAEDTAVYYCAARPLWTGDCDLSSSWYKTWGQGTLVTVSS

Target: CD47 antigen expressed on CHO-K1 cells (UniProt Q08722 19-323)
Test: flow

Row | Binder | EC50
1 | B1 | 1.04 nM
2 | B2 | 0.37 nM
3 | B3 | 0.653 nM
